Measured values: paper PMC5843810, “18th European Symposium on Radiopharmacy and Radiopharmaceuticals” (EJNMMI Radiopharmacy and Chemistry, 2016)

Tested on: tumor
Settings: organ distribution in vivo

## PSMA-1007
  tumor uptake: 8.0±2.4 %ID/g
